Measurements taken from paper PMC9190043, “Discovery of a High Affinity Adenosine A1/A3 Receptor Antagonist with a Novel 7-Amino-pyrazolo[3,4-d]pyridazine Scaffold” (ACS Medicinal Chemistry Letters, 2022).

Chains of the proteins cited; added tags and fusions are not shown. Lines headed by an entry give the natural chain unless they say otherwise; changes in a name come on top.
UniProt P30542, whole entry: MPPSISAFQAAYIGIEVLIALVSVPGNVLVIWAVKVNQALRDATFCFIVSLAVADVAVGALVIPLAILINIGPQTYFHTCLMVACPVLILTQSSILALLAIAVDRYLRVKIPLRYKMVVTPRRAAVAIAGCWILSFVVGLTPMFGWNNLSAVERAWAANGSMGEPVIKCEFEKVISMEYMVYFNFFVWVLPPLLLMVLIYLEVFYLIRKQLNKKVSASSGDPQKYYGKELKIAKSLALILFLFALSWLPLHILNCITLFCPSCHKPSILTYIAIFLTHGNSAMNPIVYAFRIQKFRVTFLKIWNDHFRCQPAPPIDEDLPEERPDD

Key:
Assay type in all cases: cell-based
human A1R = biological target: T1, human A1R (Homo sapiens, UniProt P30542); experiment: cAMP accumulation assay with NECA, incl. Schild analysis; conditions: 1 μM ligand, 10 μM forskolin, mean ± SEM
T1 construct: expressed in transfected cells

A2AR = biological target: T2, A2AR (Homo sapiens, UniProt P29274); experiment: cAMP accumulation assay with NECA; conditions: A2AR (10 μM), no forskolin, mean ± SEM
T2 construct: expressed in transfected cells

A2BR = biological target: T3, A2BR (Homo sapiens, UniProt P29275); experiment: cAMP accumulation assay with NECA, single-concentration Schild pKd
T3 construct: expressed in transfected cells
T3 sequence (P29275 1-332): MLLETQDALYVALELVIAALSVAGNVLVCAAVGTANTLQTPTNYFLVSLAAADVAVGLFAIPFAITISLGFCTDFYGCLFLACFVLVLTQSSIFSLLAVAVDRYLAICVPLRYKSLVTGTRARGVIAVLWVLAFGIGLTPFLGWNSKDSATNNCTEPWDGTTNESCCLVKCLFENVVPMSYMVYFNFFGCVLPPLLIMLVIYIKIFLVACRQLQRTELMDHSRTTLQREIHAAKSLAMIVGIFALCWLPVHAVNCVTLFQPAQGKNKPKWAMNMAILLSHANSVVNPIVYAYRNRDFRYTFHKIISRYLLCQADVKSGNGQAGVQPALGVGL

pEC50 of NECA in presence of compound (human A1R) | pEC50 of NECA in presence of compound (A2AR) | pEC50 of NECA in presence of compound (A2BR; A2BR (10 μM), no forskolin, mean ± SEM) | antagonist efficacy in cAMP assay (A2BR; A2BR, activity only detectable at 10 μM) | Kd (A2BR; affinity, human A2BR) [µM] | Kd (A2BR; pKd, A2BR (10 μM), mean ± SEM, N.B. printed for non-binders) [µM] | Compound
7.32 ± 0.09 |  |  |  |  |  | O=C(Cc1ccccc1)Nc1nc2ccc(Cl)cc2c2nc(-c3ccco3)nn12 [MRS1220]
 | 5.82 ± 0.33 | 6.39 ± 0.07 | displayed activity | < 2 | 1.74 | Cn1nc(-c2ccccc2)c2cnnc(NCc3ccccc3)c21 [Compound 10b, 1-methyl-3-phenyl-7-benzylaminopyrazolo[3,4-d]pyridazine]
